PubChem BioAssay (NCI)
Values joined by “and” are separate entries in the source; they are usually repeats but may differ in a detail not shown here. Equal values may be shown once. Only a part is listed here, and it is no random draw.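 Single-concentration screen, 48 h exposure, 96-well plates. Endpoint: percent growth. Below 10 = active.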 Active and inactive are the calls of the source.

What was measured:
Assay in all cases: NCI-60 one-dose screen, 48 h (100 = growth as untreated, 0 = no growth, -100 = all killed)
[1] = system: HCT-15 colon; details: 10 µM unless noted
[2] = system: HT29 colon; details: 10 µM unless noted
[3] = system: SNB-75 CNS; details: 10 µM unless noted
[4] = system: SNB-19 CNS; details: 10 µM unless noted
[5] = system: U251 CNS; details: 10 µM unless noted
[6] = system: PC-3 prostate; details: 10 µM unless noted
[7] = system: SK-MEL-5 melanoma; details: 10 µM unless noted
[8] = system: UACC-62 melanoma; details: 10 µM unless noted
[9] = system: LOX IMVI melanoma; details: 10 µM
[10] = system: SK-MEL-28 melanoma; details: 10 µM unless noted
[11] = system: SK-MEL-2 melanoma; details: 10 µM unless noted
[12] = system: EKVX NSCLC; details: 10 µM unless noted
[13] = system: SN12C renal; details: 10 µM unless noted
[14] = system: UO-31 renal; details: 10 µM unless noted
[15] = system: TK-10 renal; details: 10 µM unless noted
[16] = system: ACHN renal; details: 10 µM unless noted
[17] = system: CAKI-1 renal; details: 10 µM unless noted
[18] = system: A498 renal; details: 10 µM unless noted
[19] = system: HL-60(TB) leukemia; details: 10 µM unless noted
[20] = system: CCRF-CEM leukemia; details: 10 µM unless noted

Measured: growth

COc1cccc(OC)c1N(CCCl)CCCl
inactive: [1] 99.9% | [2] 92.9% | [3] 89.1% | [4] 99.1% | [5] 99.8% | [6] 99.6% | [7] 102% | [8] 96.4% | [9] 95.6% | [10] 101% | [11] 99.5% | [12] 102% | [13] 95.8% | [14] 90.4% | [15] 98.8% | [16] 105% | [17] 95.3% | [18] 108% | [19] 92.4% | [20] 105%

ClCCN1c2ccccc2Oc2ccccc21
inactive: [1] 96.6% | [2] 105% | [3] 97.7% | [4] 95.9% | [5] 104% | [6] 98.8% | [7] 99.6% | [8] 101% | [9] 105% | [10] 112% | [11] 105% | [12] 98.8% | [13] 98.9% | [14] 94.4% | [15] 96.8% | [16] 100% | [17] 94.3% | [18] 106% | [19] 114% | [20] 107%

CCCCOP(=O)(OCCCC)N1CCCC1C(=O)O (stereo not drawn)
inactive: [1] 106% | [2] 89.5% | [3] 90.9% | [4] 101% | [5] 91.2% | [6] 89.8% | [7] 99.8% | [8] 101% | [9] 96.5% | [10] 108% | [11] 122% | [12] 93.6% | [13] 98.4% | [14] 96.2% | [15] 98.7% | [16] 107% | [17] 98% | [18] 77.9% | [19] 77.8% | [20] 103%

C[As](=O)(O)c1cccc(C(=O)O)c1
inactive: [1] 103% | [2] 102% | [3] 92% | [4] 98.7% | [5] 102% | [6] 92% | [7] 108% | [8] 101% | [9] 95.3% | [10] 128% | [11] 106% | [12] 96.1% | [13] 107% | [14] 75.2% | [15] 107% | [16] 98.1% | [17] 97.7% | [18] 102% | [19] 64.5% | [20] 99.6%

COc1cc([N+](=O)[O-])c([N+](=O)[O-])cc1OC
inactive: [1] 102% and 110% | [2] 111% | [3] 99.7% and 107% | [4] 103% and 105% | [5] 98.3% and 99.9% | [6] 103% | [7] 99.2% | [8] 82.5% and 104% | [9] 99.7% and 97.6% | [10] 101% and 113% | [11] 97.9% and 107% | [12] 100% and 109% | [13] 94.8% and 102% | [14] 92.4% and 93.8% | [15] 123% and 109% | [16] 109% and 114% | [17] 105% | [18] 89.5% and 101% | [19] 72% and 103% | [20] 92.2% and 104%

COC1OC(CNCCCl)C2OC(C)(C)OC12 (stereo not drawn)
inactive: [1] 107% | [2] 104% | [3] 70.1% | [4] 96.7% | [5] 99.2% | [6] 115% | [7] 112% | [8] 97% | [9] 108% | [10] 126% | [11] 86.4% | [12] 160% | [13] 104% | [14] 93.3% | [15] 124% | [16] 108% | [17] 98.7% | [18] 110% | [19] 108% | [20] 121%

CCOC(=O)NC(c1ccccc1[N+](=O)[O-])P(=O)(O)Nc1ncn[nH]1 (stereo not drawn)
inactive: [1] 98.7% | [2] 104% | [3] 88.7% | [4] 106% | [5] 108% | [6] 102% | [7] 103% | [8] 101% | [9] 92.4% | [10] 105% | [11] 106% | [12] 96.4% | [13] 106% | [14] 73.4% | [15] 121% | [16] 105% | [17] 97.8% | [18] 132% | [19] 150% | [20] 106%

Nc1ccc([As](=O)(O)c2ccc(N)cc2)cc1
inactive: [1] 107% | [2] 99.5% | [3] 89.2% | [4] 91.6% | [5] 83.9% | [6] 86% | [7] 105% | [8] 96.6% | [9] 84.4% | [10] 111% | [11] 119% | [12] 105% | [13] 110% | [14] 75.4% | [15] 102% | [16] 92% | [17] 87.2% | [18] 111% | [19] 77.9%

Cc1c([N+](=O)[O-])cc(C(=O)c2cc([N+](=O)[O-])cc([N+](=O)[O-])c2)cc1[N+](=O)[O-]
inactive: [1] 101% | [2] 108% | [3] 94.9% | [4] 107% | [5] 94.8% | [6] 80.5% | [7] 61.1% | [8] 92% | [9] 91.4% | [10] 107% | [11] 98.6% | [12] 99% | [13] 93.6% | [14] 80% | [15] 108% | [16] 101% | [17] 104% | [18] 94.5% | [19] 104% | [20] 96.6%

O=[N+]([O-])c1cc(Cl)c(O)c([N+](=O)[O-])c1
inactive: [1] 107% | [2] 95.8% | [3] 109% | [4] 100% | [5] 93.8% | [6] 93.3% | [7] 97% | [8] 93.2% | [9] 105% | [10] 103% | [11] 92.6% | [12] 103% | [13] 97.6% | [14] 92.1% | [15] 103% | [16] 105% | [17] 101% | [18] 89.7% | [19] 109% | [20] 102%

Cc1cc(C)cc(OP(=O)(Cl)Oc2cc(C)cc(C)c2)c1
inactive: [1] 105% | [2] 110% | [3] 110% | [4] 106% | [5] 95.3% | [6] 112% | [7] 109% | [8] 102% | [9] 103% | [10] 124% | [11] 119% | [12] 103% | [13] 99.7% | [14] 79.5% | [15] 104% | [16] 111% | [17] 99.4% | [18] 95.5% | [19] 108% | [20] 112%

Cc1ccccc1OP(=O)(Cl)Oc1ccccc1C
inactive: [1] 108% | [2] 99.4% | [3] 96.2% | [4] 100% | [5] 105% | [6] 100% | [7] 101% | [8] 94.7% | [9] 110% | [10] 112% | [11] 92.8% | [12] 110% | [13] 93.7% | [14] 85.3% | [15] 93.8% | [16] 104% | [17] 103% | [18] 93.6% | [19] 98.1%

CCOP(=O)(NC1CCCCC1)OCC
inactive: [1] 125% | [2] 101% | [3] 100% | [4] 93.2% | [5] 104% | [6] 87.1% | [7] 105% | [8] 88.5% | [9] 78.5% | [10] 107% | [11] 107% | [12] 106% | [13] 88.5% | [14] 84% | [15] 111% | [16] 98.4% | [17] 90.9% | [18] 105% | [19] 106% | [20] 92%

COc1ccc(N)c([N+](=O)[O-])c1[N+](=O)[O-]
inactive: [1] 96% | [2] 107% | [3] 87.7% | [4] 111% | [5] 95.4% | [6] 62.8% | [7] 97.6% | [8] 97.7% | [9] 89% | [10] 105% | [11] 116% | [12] 106% | [13] 93.3% | [14] 92.2% | [15] 129% | [16] 96.1% | [17] 110% | [18] 102% | [19] 51.6% | [20] 101%

CN(C)C(=O)NP(=O)(N(C)C)N(C)C
inactive: [1] 98% | [2] 110% | [3] 101% | [4] 108% | [5] 100% | [6] 98.5% | [7] 109% | [8] 104% | [9] 93.8% | [10] 109% | [11] 114% | [12] 98.7% | [13] 99.3% | [14] 92.4% | [15] 102% | [16] 96.6% | [17] 93.1% | [18] 109% | [19] 103% | [20] 103%
